{"source": "patent US20080119530A1", "about": "“Method for treatment and prevention of ultraviolet light induced skin pathologies” (priority 2006, published 2008)", "origin": "cited, not measured here", "key": {"[1]": {"details": "current Erbb2-targeted therapies; cited from earlier work"}, "[2]": {"test_system": "p27", "details": "cited from earlier work"}}, "data": [{"substance": "trastuzumab: current Erbb2-targeted therapy; Erbb2 antagonist", "values": [{"measurement": "skin toxicity", "setting": "[1]", "value": "Low incidence"}, {"measurement": "p27 expression", "setting": "[2]", "value": "increase"}]}]}
